According to patent US11267791B2, “Highly stable crystalline Eltrombopag monoethanolamine salt form D1” (F.I.S.—FABBRICA ITALIANA SINTETICI S.P.A., priority 2018, dated 2022):

Experiment: Relative thermodynamic solubility in water at RT by HPLC
Format: physicochemical
Details: for Intensity test average: average of solubility tests #1 and #2, HPLC ETP peak area; for Solubility test #1 (area counts) / Solubility test #2 (area counts): saturated water solution, 24 h at RT, HPLC ETP peak area; for Solubility test #2 (area counts): repeat
Method: The relative solubility of the above mentioned 4 ETP monoethanolamine salt Forms was studied in water at RT. The validity of any solubility measurement requires that the crystalline form must remain stable with respect to any phase conversion taking place during the determination of the equilibrium solubility.
As the solubility of these forms was very low in water, a suspension (10 mg in 1 mL of water) was performed in water at RT in order to afford a saturated solution. This suspension was stirred 24 h at RT in order to reach the equilibrium. Then, a sample was filtered and the resulting filtrate was analysed by HPLC by duplicate. The average peak area of ETP gave a relative value of the thermodynamic solubility of each form that can be compared with each other. The solids recovered after filtration were also analysed by XRPD to check that no crystalline phase transformation occurred during the slurring.
The following HPLC conditions were used to determine the relative solubility (due to their short analysis time and good response): • Column: C18 Zorbax Eclipse (XDB), 150×4.6 mm, 5 μm • Sample concentration: Saturated water solution of the ETP monoethanolamine salt • Mobile phase: ACN:MeOH:H2O (55:35:10) at pH=6.0+/−0.2 • Temperature: 27° C. • Flow rate: 1 mL/min • UV detector wavelength: 230 nm • Injection: 5 μL • Run time: 10 min
HPLC ETP peak area in each of the different forms analysed was measured in order to establish their relative solubility. The HPLC analyses were performed by duplicate for each ETP monoethanolamine salt.

Eltrombopag monoethanolamine salt [Form D]
Intensity test average: 8066 | Solubility test #1 (area counts): 7930 area counts | Solubility test #2 (area counts): 8201 area counts

Eltrombopag monoethanolamine salt [Form H]
Intensity test average: 4497 | Solubility test #1 (area counts): 3963 area counts | Solubility test #2 (area counts): 5031 area counts

Eltrombopag monoethanolamine salt [Form H2]
Intensity test average: 2867 | Solubility test #1 (area counts): 3068 area counts | Solubility test #2 (area counts): 2665 area counts
